Source: PubChem BioAssay (NCI)
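Cultured in 96-well plates, cells were exposed to test compound for 48 hours across five concentrations. The concentration for 50% growth inhibition is given as GI50. TGI marks complete inhibition of growth.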

Tests used:
Experiment in all cases: growth of human tumour cells (NCI), 48 h
HL-60(TB) leukemia = system: HL-60(TB) leukemia
ACHN renal = system: ACHN renal
SNB-75 CNS = system: SNB-75 CNS
UACC-257 melanoma = system: UACC-257 melanoma
NCI/ADR-RES ovarian = system: NCI/ADR-RES ovarian
SN12C renal = system: SN12C renal
NCI-H322M lung = system: NCI-H322M lung
HS 578T breast = system: HS 578T breast
786-0 renal = system: 786-0 renal
CCRF-CEM leukemia = system: CCRF-CEM leukemia
RPMI-8226 leukemia = system: RPMI-8226 leukemia
EKVX NSCLC = system: EKVX NSCLC
OVCAR-4 ovarian = system: OVCAR-4 ovarian
OVCAR-5 ovarian = system: OVCAR-5 ovarian
MDA-MB-435 = system: MDA-MB-435
SF-268 CNS = system: SF-268 CNS
MDA-MB-231 breast = system: MDA-MB-231 breast
M14 melanoma = system: M14 melanoma
CAKI-1 renal = system: CAKI-1 renal
A498 renal = system: A498 renal
SK-MEL-5 melanoma = system: SK-MEL-5 melanoma
SK-MEL-2 melanoma = system: SK-MEL-2 melanoma
SW-620 colon = system: SW-620 colon
BT-549 breast = system: BT-549 breast
SF-295 CNS = system: SF-295 CNS
SK-OV-3 ovarian = system: SK-OV-3 ovarian
U251 CNS = system: U251 CNS
NCI-H460 lung = system: NCI-H460 lung
SK-MEL-28 melanoma = system: SK-MEL-28 melanoma
SR leukemia = system: SR leukemia
MCF7 breast = system: MCF7 breast
SF-539 CNS = system: SF-539 CNS
HCT-116 colon = system: HCT-116 colon
COLO 205 colon = system: COLO 205 colon
HCC-2998 colon = system: HCC-2998 colon
LOX IMVI melanoma = system: LOX IMVI melanoma
NCI-H522 lung = system: NCI-H522 lung
HOP-92 NSCLC = system: HOP-92 NSCLC
DU-145 prostate = system: DU-145 prostate
NCI-H226 lung = system: NCI-H226 lung
TK-10 renal = system: TK-10 renal
KM12 colon = system: KM12 colon
UACC-62 melanoma = system: UACC-62 melanoma
PC-3 prostate = system: PC-3 prostate
IGROV1 ovarian = system: IGROV1 ovarian
UO-31 renal = system: UO-31 renal
HOP-62 NSCLC = system: HOP-62 NSCLC
MALME-3M melanoma = system: MALME-3M melanoma
A549 NSCLC = system: A549 NSCLC
K-562 leukemia = system: K-562 leukemia
RXF 393 renal = system: RXF 393 renal
HT29 colon = system: HT29 colon
SNB-19 CNS = system: SNB-19 CNS
OVCAR-8 ovarian = system: OVCAR-8 ovarian
OVCAR-3 ovarian = system: OVCAR-3 ovarian
NCI-H23 lung = system: NCI-H23 lung
HCT-15 colon = system: HCT-15 colon
T-47D breast = system: T-47D breast

COc1ccc2nccc(C=O)c2c1.O=[N+]([O-])c1cc([N+](=O)[O-])c(O)c([N+](=O)[O-])c1
TGI (HL-60(TB) leukemia): 0.869 µM
GI50 (ACHN renal): 5.44 µM
TGI (ACHN renal): 33.9 µM
GI50 (SNB-75 CNS): 14.6 µM
TGI (SNB-75 CNS): 77.1 µM
GI50 (UACC-257 melanoma): 9.91 µM
TGI (UACC-257 melanoma): 61.6 µM
GI50 (NCI/ADR-RES ovarian): 1.71 µM
TGI (NCI/ADR-RES ovarian): > 100 µM
GI50 (SN12C renal): 2.31 µM
TGI (SN12C renal): 28.9 µM
GI50 (NCI-H322M lung): 53.6 µM
TGI (NCI-H322M lung): > 100 µM
GI50 (HS 578T breast): 6.17 µM
TGI (HS 578T breast): 26.7 µM
GI50 (786-0 renal): 16.5 µM
TGI (786-0 renal): > 100 µM
GI50 (CCRF-CEM leukemia): 0.316 µM
TGI (CCRF-CEM leukemia): 54.6 µM
GI50 (RPMI-8226 leukemia): 0.358 µM
TGI (RPMI-8226 leukemia): 25.8 µM
GI50 (EKVX NSCLC): 36.6 µM
TGI (EKVX NSCLC): 66.4 µM
GI50 (OVCAR-4 ovarian): 4.32 µM
TGI (OVCAR-4 ovarian): > 100 µM
GI50 (OVCAR-5 ovarian): 33.8 µM
TGI (OVCAR-5 ovarian): 86.7 µM
GI50 (MDA-MB-435): 3.89 µM
TGI (MDA-MB-435): 27.1 µM
GI50 (SF-268 CNS): 5.4 µM
TGI (SF-268 CNS): 59 µM
GI50 (MDA-MB-231 breast): 9.23 µM
TGI (MDA-MB-231 breast): > 100 µM
GI50 (M14 melanoma): 3.58 µM
TGI (M14 melanoma): 37.1 µM
GI50 (CAKI-1 renal): 37.2 µM
TGI (CAKI-1 renal): 76 µM
TGI (A498 renal): 51 µM
GI50 (SK-MEL-5 melanoma): 2.38 µM
TGI (SK-MEL-5 melanoma): 13.2 µM
GI50 (SK-MEL-2 melanoma): 20.5 µM
TGI (SK-MEL-2 melanoma): 78.3 µM
GI50 (SW-620 colon): 0.245 µM
TGI (SW-620 colon): 47.7 µM
GI50 (BT-549 breast): 11.7 µM
TGI (BT-549 breast): 77.9 µM
GI50 (SF-295 CNS): 5.69 µM
TGI (SF-295 CNS): 41.4 µM
GI50 (SK-OV-3 ovarian): 20.7 µM
TGI (SK-OV-3 ovarian): > 100 µM
GI50 (U251 CNS): 0.364 µM
TGI (U251 CNS): 33.3 µM
GI50 (NCI-H460 lung): 37.3 µM
TGI (NCI-H460 lung): 59.2 µM
GI50 (SK-MEL-28 melanoma): 4.65 µM
TGI (SK-MEL-28 melanoma): 22.2 µM
GI50 (SR leukemia): 0.025 µM
TGI (SR leukemia): 0.166 µM
GI50 (MCF7 breast): 0.258 µM
TGI (MCF7 breast): 9.47 µM
GI50 (SF-539 CNS): 0.379 µM
TGI (SF-539 CNS): 1.66 µM
GI50 (HCT-116 colon): 0.083 µM
TGI (HCT-116 colon): 7.47 µM
GI50 (COLO 205 colon): 15 µM
TGI (COLO 205 colon): 67.6 µM
GI50 (HCC-2998 colon): 32.2 µM
TGI (HCC-2998 colon): 84.6 µM
GI50 (LOX IMVI melanoma): 0.616 µM
TGI (LOX IMVI melanoma): 6.35 µM
GI50 (NCI-H522 lung): 29.6 µM
TGI (NCI-H522 lung): > 100 µM
GI50 (HOP-92 NSCLC): 0.816 µM
TGI (HOP-92 NSCLC): 50 µM
GI50 (DU-145 prostate): 1.79 µM
TGI (DU-145 prostate): 18.9 µM
GI50 (NCI-H226 lung): 23.8 µM
TGI (NCI-H226 lung): > 100 µM
GI50 (TK-10 renal): 32.2 µM
TGI (TK-10 renal): 88.8 µM
GI50 (KM12 colon): 30 µM
TGI (KM12 colon): > 100 µM
GI50 (UACC-62 melanoma): 11 µM
TGI (UACC-62 melanoma): 68.7 µM
GI50 (PC-3 prostate): 3.72 µM
TGI (PC-3 prostate): 28.6 µM
GI50 (IGROV1 ovarian): 9.07 µM
TGI (IGROV1 ovarian): 66.7 µM
GI50 (UO-31 renal): 28.5 µM
TGI (UO-31 renal): > 100 µM
GI50 (HOP-62 NSCLC): 9.75 µM
TGI (HOP-62 NSCLC): 52.2 µM
GI50 (MALME-3M melanoma): 2.02 µM
TGI (MALME-3M melanoma): 29.3 µM
GI50 (A549 NSCLC): > 100 µM
TGI (A549 NSCLC): > 100 µM
GI50 (K-562 leukemia): 0.0744 µM
TGI (K-562 leukemia): 0.892 µM
GI50 (RXF 393 renal): 87.5 µM
TGI (RXF 393 renal): > 100 µM
GI50 (HT29 colon): 3.01 µM
TGI (HT29 colon): 15.7 µM
GI50 (SNB-19 CNS): 2.22 µM
TGI (SNB-19 CNS): 24.2 µM
GI50 (OVCAR-8 ovarian): 0.451 µM
TGI (OVCAR-8 ovarian): 11.9 µM
GI50 (OVCAR-3 ovarian): 0.625 µM
TGI (OVCAR-3 ovarian): 2.94 µM
GI50 (NCI-H23 lung): 7.03 µM
TGI (NCI-H23 lung): 25 µM
GI50 (HCT-15 colon): 0.216 µM
TGI (HCT-15 colon): > 100 µM
GI50 (T-47D breast): 0.0614 µM
TGI (T-47D breast): 0.437 µM
